Experimental data as given in US20220047701A1, “COMBINATION OF HER2/NEU ANTIBODY WITH HEME FOR TREATING CANCER” (INSERM (Institut National de la Santé et de la Recherche …, priority 2018, published 2022).

Target: Biotinylated HER-2 mimotope peptide
Experiment: SPR (Biacore), biotinylated mimotope on streptavidin chip, antibody injected

heme-exposed Trastuzumab (antibody)
pKd: 8.18

Trastuzumab (native) (antibody)
pKd: 8.42

pKd: −log10 of the molar value.
